Results on 24 compounds are retold here after PubChem BioAssay AID485275 (NMMLSC, 2010).

In general, inhibition refers to the relative decrease from the control value, in per cent.

Only a part is listed here, and it is no random draw. Some results for these compounds are left out of this collection, so the calls shown say nothing about other tests. Activity calls are given as the source filed them.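 The calls were made as follows: active = plate passing quality check with inhibition over a set limit, or well fluorescence over plate mean plus 4 SD; inactive = the rest.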

This assay in a line: inhibitors of Candida efflux pumps in yeast, primary screen, S. cerevisiae, Nile Red, multiplex (AID 485275).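 Also: Nile Red retained in pooled yeast measured as flow cytometry median fluorescence; 0% = buffer negative control and 100% = Enniatin B positive control; higher means more Nile Red kept so more efflux inhibition.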 The settings on record: S. cerevisiae Candida pump triplex, at 10 µM, active compounds read high.
For `CN(C)c1ccc(C(=O)NCC2(N(C)C)CCCCC2)cc1`, the inhibition was inactive: -0.05%.

In the case of `CN(C)C1CCCC1OC(=O)C(O)(c1ccccc1)c1ccccc1` (centres undefined), the inhibition is inactive: 0.18%.

Consider `Cc1ccccc1C(=O)NCC1(N2CCCCC2)CCCCC1`, for which the inhibition is inactive: 0.04%.

For the compound `O=C(NCC1(N2CCCCC2)CCCCC1)c1cc(F)c(F)cc1Cl`, the inhibition is inactive: 0.03%.

With `C=CCN1CCN(CCOC(=O)C(O)(c2ccccc2)c2ccccc2)CC1`, the inhibition is inactive: 0.15%.

Turning to `O=C(NCC1(N2CCCCC2)CCCCC1)c1cccc(Br)c1`, the inhibition was inactive: 0.48%.

For `CCN1CCCC(OC(=O)C2(O)c3ccccc3C=Cc3ccccc32)C1` (centres undefined), the inhibition is inactive: 0.02%.

As for `Cc1cc(C(=O)NCC2(N3CCCCC3)CCCCC2)ccc1[N+](=O)[O-]`, the inhibition was inactive: -0.31%.

Consider `COc1ccc(C(=O)NCC2(N(C)C)CCCCC2)cc1`, for which the inhibition was inactive: 0.18%.

As to `O=C(NCC1(N2CCCCC2)CCCCC1)c1cc([N+](=O)[O-])ccc1Cl`, the inhibition was inactive: -0.08%.

Take `CN1[C@@H]2CC[C@H]1CC(OC(=O)C(O)(c1ccccc1)c1ccccc1)C2` (some centres undefined): the inhibition was inactive: -0.09%.

Take `CC(C)N1C(=O)CC2(CCN(CCOC(=O)C(O)(c3ccccc3)c3ccccc3)CC2)C1=O`: the inhibition was inactive: 0.03%.

As for `COc1cc(SC)ccc1C(=O)NCC1(N(C)C)CCCCC1`, the inhibition is inactive: -0.01%.

For `CCN(CC)CC(C)C(C)OC(=O)C(O)(c1ccccc1)c1ccccc1` (centres undefined), the inhibition is inactive: -0.11%.

`Cc1ccc(C(=O)NCC2(N3CCCCC3)CCCCC2)cc1`: the inhibition is inactive: -0.19%.

For the compound `O=C(OC1CN2CCC1CC2)C(CO)(c1ccccc1)c1ccccc1` (centres undefined), the inhibition was inactive: 0.02%.

Consider `COc1ccc(Br)c(C(=O)NCC2(N3CCCCC3)CCCCC2)c1`, for which the inhibition was inactive: -0.22%.

Regarding `CN(C)c1cccc(C(=O)NCC2(N(C)C)CCCCC2)c1`, the inhibition was inactive: -0.09%.

Regarding `CC(C)Oc1ccc(C(=O)NCC2(N(C)C)CCCCC2)cc1`, the inhibition is inactive: 0.13%.

For `CN(C)C1(CNC(=O)c2ccc(Br)cc2)CCCCC1`, the inhibition was inactive: -0.94%.

`COc1cc(C(=O)NCC2(N(C)C)CCCCC2)c([N+](=O)[O-])cc1OC`: the inhibition was inactive: 0.22%.

In the case of `COc1ccc(Cl)cc1C(=O)NCC1(N(C)C)CCCCC1`, the inhibition is inactive: -0.01%.

In the case of `COc1cccc(C(=O)NCC2(N3CCCCC3)CCCCC2)c1`, the inhibition was inactive: -0.47%.

In the case of `O=C(NCC1(N2CCCCC2)CCCCC1)c1cccc(Cl)c1`, the inhibition was inactive: 0.04%.
